pEC50, pIC50, pKi: −log10 of the molar value.
What was measured:
[1] = target: T1, human VR1 (Homo sapiens, UniProt Q8NER1); assay: Human VR1 functional assay (FLIPR intracellular Ca2+); type: cell-based; conditions: for h % I (1 μM): inhibition of capsaicin response; for pIC50: read-out: h IC50, antagonism of capsaicin-induced Ca2+ increase
Procedure: The functional activity of the test compounds was determined by measuring changes in intracellular calcium concentration using a Ca^2+-sensitive fluorescent dye and FLIPR™ technology. Increases in Ca^2+ concentration were readily detected upon challenge with capsaicin. HEK293 Cells expressing human VR1 were grown on poly-D-lysine coated 384 well black-walled plates (BD 354663) and 1 day later loaded with Calcium 3 Dye for 35 min at 37 C, 5% CO2 and then for 25 min at room temperature, and subsequently tested for agonist-induced increases in intracellular Ca^2+ levels using FLIPR™ technology. Cells were challenged with test compounds (at varying concentrations, which are indicated in parentheses in the heading of the table below) and intracellular Ca^2+ was measured for 5 min prior to the addition of capsaicin to all wells to achieve a final concentration of eliciting an approximate 80% maximal response ([…]). EC50 or IC50 values were determined from dose-response studies. Curves were generated using the average of quadruplicate wells for each data point.

Sequences of proteins named here, by UniProt entry; tags and fusion partners are left off.
UniProt Q8NER1, whole entry: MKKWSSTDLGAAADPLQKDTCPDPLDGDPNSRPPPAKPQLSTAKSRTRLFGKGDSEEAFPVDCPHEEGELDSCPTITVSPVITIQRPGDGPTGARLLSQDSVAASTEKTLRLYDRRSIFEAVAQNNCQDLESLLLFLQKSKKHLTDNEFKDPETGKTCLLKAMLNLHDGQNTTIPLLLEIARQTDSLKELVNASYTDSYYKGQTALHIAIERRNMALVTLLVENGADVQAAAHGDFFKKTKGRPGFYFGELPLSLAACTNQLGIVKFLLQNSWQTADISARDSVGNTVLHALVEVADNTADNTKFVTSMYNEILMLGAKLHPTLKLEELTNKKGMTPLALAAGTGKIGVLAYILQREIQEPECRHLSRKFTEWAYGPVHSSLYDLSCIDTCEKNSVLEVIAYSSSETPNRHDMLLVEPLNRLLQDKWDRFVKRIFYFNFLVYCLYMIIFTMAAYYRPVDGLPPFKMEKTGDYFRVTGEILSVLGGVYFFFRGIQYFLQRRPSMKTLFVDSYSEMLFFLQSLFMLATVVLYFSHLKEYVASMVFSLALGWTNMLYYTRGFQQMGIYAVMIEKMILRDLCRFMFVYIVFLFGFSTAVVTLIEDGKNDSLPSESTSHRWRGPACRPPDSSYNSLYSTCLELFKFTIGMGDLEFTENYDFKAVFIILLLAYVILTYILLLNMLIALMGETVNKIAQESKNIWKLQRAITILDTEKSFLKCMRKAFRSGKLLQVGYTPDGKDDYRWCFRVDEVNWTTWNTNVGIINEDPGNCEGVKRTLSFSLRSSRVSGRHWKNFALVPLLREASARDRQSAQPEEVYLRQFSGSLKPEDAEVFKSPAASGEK

[2] = target: T1, human VR1; assay: Human VR1 [3H]RTX binding assay
Procedure: Compounds of the present invention were tested for their ability to inhibit the binding of tritiated resiniferatoxin ([^3H] RTX) to human VR1 receptors in a [^3H] […]
Approximately 120 μg protein/ml from membranes were incubated with indicated concentrations of [^3H]RTX in 0.5 ml of the HEPES buffer (pH 7.4) containing 0.25 mg/mL fatty acid-free bovine serum albumin at 37 C for 60 min. After cooling the reaction mixture to 4 C, 0.1 mg (x-acid glycoprotein was added to each sample, which was incubated at 4 C for 15 min and then centrifuged at 18500× g for 15 min. The tip of the microcentrifuge tube containing the pellet was cut off. Bound radioactivity was quantified by scintillation counting. Non-specific binding was assessed in the presence of 200 nM unlabeled resiniferatoxin.
Data were calculated according to the equation: % inhibtion=(total binding−binding)*100/(total binding−non specific binding).
Ki values were calculated based on an average of duplicate measurements using a GraphPad Prism program.

SMILES | h % I (1 μM) [1] | pIC50 [1] | h Binding % I (1 μM) ([2]; inhibition of [3H]RTX binding at 1 μM) | pKi ([2]; read-out: h Ki, [3H]RTX binding, HEK293 membranes) | % Response Relative to EC80 of Capsaicin (12 μM) ([1]; agonist response, 12 μM) | pEC50 ([1]; read-out: h EC50, agonist-induced Ca2+ increase)
O=C(CCc1ccc(S(=O)(=O)C(F)(F)F)cc1)Nc1ccc(-n2cnc(Cl)c2Cl)c(C(F)(F)F)c1 | 98% | 6.51 |  |  |  | 
Cc1cc(NC(=O)CCc2ccc(S(=O)(=O)C(F)(F)F)cc2)cnc1-n1cnc(Cl)c1Cl | 97% | 6.49 |  |  |  | 
CC(=O)Nc1cccc(-c2ccc(NC(=O)CCc3ccc(C(C)(C)C)cc3)cn2)c1 |  |  | 60% | 6.45 | 125% | 8.22

Reference: US20060223837A1 (priority 2005, published 2006)
